Values of other authors in patent publication US20250356984A1 (priority 2022, published 2025).

Details: 2.0 mg/kg of propofol

## CC(C)c1cccc(C(C)C)c1O [propofol]
  time a patient is maintained within the therapeutic range: approximately 8 minutes
